Measured values from US7160888B2, “[1,8]naphthyridin-2-ones and related compounds for the treatment of schizophrenia” (Warner Lambert Company LLC, priority 2003, dated 2007).

Protein sequences, listed by entry. Tags and fused reporters are not part of them.
UniProt P14416, whole entry: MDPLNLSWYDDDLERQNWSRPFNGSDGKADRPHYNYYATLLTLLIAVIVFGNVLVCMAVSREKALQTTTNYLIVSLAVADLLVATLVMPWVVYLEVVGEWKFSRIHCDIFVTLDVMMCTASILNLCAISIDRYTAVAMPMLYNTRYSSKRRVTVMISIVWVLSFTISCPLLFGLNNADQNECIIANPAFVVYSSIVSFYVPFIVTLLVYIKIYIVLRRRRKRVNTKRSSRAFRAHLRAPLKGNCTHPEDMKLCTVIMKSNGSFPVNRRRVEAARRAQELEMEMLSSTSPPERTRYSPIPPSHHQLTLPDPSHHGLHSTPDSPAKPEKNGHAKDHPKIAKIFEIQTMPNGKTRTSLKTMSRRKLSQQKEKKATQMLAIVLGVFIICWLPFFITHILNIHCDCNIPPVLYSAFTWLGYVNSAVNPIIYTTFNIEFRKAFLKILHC

Biological target: D2 receptor (Homo sapiens, UniProt P14416)
Experiment: [3H]Thymidine uptake assay for D2 intrinsic activity
Type: cell-based
Settings: Table 1; test compound 1 μM; 1 μM Quinpirole = 100% intrinsic activity

| Structure (SMILES) | Emax at 1 µM |
| --- | --- |
| Cc1ccccc1N1CCN(CCCCOc2ccc3ccc(=O)[nH]c3n2)CC1 [Example B12, 7-[4-(4-o-Tolyl-piperazin-1-yl)-butoxy]-1H-[1,8]naphthyridin-2-one] | 38% |
| O=c1ccc2ccc(OCCCCN3CCN(c4ccccc4Cl)CC3)nc2[nH]1 [Example B25, 7-{4-[4-(2-Chloro-phenyl)-piperazin-1-yl]-butoxy}-1H-[1,8]naphthyridin-2-one] | 43% |
| O=c1ccc2ccc(OCCCCN3CCN(c4cc(F)cc5c4CCCC5)CC3)nc2[nH]1 [Example B34, 7-{4-[4-(3-Fluoro-5,6,7,8-tetrahydro-naphthalen-1-yl)-piperazin-1-yl]-butoxy}-1H-[1,8]naphthyridin-2-one] | 14% |
| O=c1ccc2ccc(OCCCCN3CCN(c4cccc5cc(F)ccc45)CC3)nc2[nH]1 [Example B48, 7-{4-[4-(6-Fluoro-naphthalen-1-yl)-piperazin-1-yl]-butoxy}-1H-[1,8]naphthyridin-2-one] | 19% |
| O=c1ccc2ccc(OCCCCN3CCN(c4cccc5ccc(F)cc45)CC3)nc2[nH]1 [Example B49, 7-{4-[4-(7-Fluoro-naphthalen-1-yl)-piperazin-1-yl]-butoxy}-1H-[1,8]naphthyridin-2-one] | 50% |
| O=c1ccc2ccc(OCCCCN3CCN(c4cc(F)cc5ccccc45)CC3)nc2[nH]1 [Example B53, 7-{4-[4-(3-Fluoro-naphthalen-1-yl)-piperazin-1-yl]-butoxy}-1H-[1,8]naphthyridin-2-one] | 26% |
| O=c1ccc2ccc(CCCCCN3CCN(c4cccc(Cl)c4Cl)CC3)nc2[nH]1 [Example C20, 7-{5-[4-(2,3-Dichloro-phenyl)-piperazin-1-yl]-pentyl}-1H-[1,8]naphthyridin-2-one] | 33% |
